The target in this assay is ASGPR (Homo sapiens (Human), UniProt P07306). As to the kind of experiment: Affinity to ASGPR measured by surface plasmon resonance (SPR). Particulars: read-out: SPR Binding External Calculation: KD.

Amino acid sequences for entries named in this document (tags omitted). A change or cut given only in a name is not applied to a line headed by its entry.
UniProt P07306: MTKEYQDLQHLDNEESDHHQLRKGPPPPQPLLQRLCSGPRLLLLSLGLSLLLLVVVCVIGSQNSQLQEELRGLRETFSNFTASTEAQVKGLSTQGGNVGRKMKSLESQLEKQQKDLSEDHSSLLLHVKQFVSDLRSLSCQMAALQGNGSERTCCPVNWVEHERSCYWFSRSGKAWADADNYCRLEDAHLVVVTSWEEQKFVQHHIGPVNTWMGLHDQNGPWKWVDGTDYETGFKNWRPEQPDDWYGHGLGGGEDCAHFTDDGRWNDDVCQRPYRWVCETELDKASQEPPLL

pKd: −log10 of the molar value.

What is called pKd is −log10 of the Kd, conventionally taken in molar units.

With `CO[C@H]1O[C@H](CO)[C@H](O)[C@H](O)[C@H]1Nc1nc(N(C)C)ns1` [Compound A114, (2R,3R,4R,5R,6S)-5-((3-(dimethylamino)-1,2,4-thiadiazol-5-yl)amino)-2-(hydroxymethyl)-6-methoxytetrahydro-2H-pyran-3,4-diol], the negative logarithm of the Kd (pKd) is over 4.00.

The record behind these values is patent publication US20240072809A1, “ASGPR-BINDING COMPOUNDS FOR THE DEGRADATION OF EXTRACELLULAR PROTEINS” (Avilar Therapeutics, Inc., priority 2020, published 2024).
